Tests used:
[1] = target: KAT7+JADE1+EAF6+ING5 4 protein complex (Homo sapiens (Human), UniProt O95251); assay: KAT7 JADE1 assay (SAMDI-MS acetylation of H3 1-21 peptide); format: biochemical; conditions: Morrison equation fit; replicate number in parentheses
KAT6A Full length enzyme = KAT6A Full length enzyme (Homo sapiens (Human), UniProt Q92794); assay: KAT6A assay (SAMDI-MS acetylation of H3 1-21 peptide); format: biochemical; conditions: Morrison equation fit; replicate number in parentheses

Protein sequences, listed by entry. Tags and fused reporters are not part of them. Chains listed by the source or under a name are the forms on record and can include a tag or linker.
UniProt Q92794, other isoform, or with tags, fused parts or gaps: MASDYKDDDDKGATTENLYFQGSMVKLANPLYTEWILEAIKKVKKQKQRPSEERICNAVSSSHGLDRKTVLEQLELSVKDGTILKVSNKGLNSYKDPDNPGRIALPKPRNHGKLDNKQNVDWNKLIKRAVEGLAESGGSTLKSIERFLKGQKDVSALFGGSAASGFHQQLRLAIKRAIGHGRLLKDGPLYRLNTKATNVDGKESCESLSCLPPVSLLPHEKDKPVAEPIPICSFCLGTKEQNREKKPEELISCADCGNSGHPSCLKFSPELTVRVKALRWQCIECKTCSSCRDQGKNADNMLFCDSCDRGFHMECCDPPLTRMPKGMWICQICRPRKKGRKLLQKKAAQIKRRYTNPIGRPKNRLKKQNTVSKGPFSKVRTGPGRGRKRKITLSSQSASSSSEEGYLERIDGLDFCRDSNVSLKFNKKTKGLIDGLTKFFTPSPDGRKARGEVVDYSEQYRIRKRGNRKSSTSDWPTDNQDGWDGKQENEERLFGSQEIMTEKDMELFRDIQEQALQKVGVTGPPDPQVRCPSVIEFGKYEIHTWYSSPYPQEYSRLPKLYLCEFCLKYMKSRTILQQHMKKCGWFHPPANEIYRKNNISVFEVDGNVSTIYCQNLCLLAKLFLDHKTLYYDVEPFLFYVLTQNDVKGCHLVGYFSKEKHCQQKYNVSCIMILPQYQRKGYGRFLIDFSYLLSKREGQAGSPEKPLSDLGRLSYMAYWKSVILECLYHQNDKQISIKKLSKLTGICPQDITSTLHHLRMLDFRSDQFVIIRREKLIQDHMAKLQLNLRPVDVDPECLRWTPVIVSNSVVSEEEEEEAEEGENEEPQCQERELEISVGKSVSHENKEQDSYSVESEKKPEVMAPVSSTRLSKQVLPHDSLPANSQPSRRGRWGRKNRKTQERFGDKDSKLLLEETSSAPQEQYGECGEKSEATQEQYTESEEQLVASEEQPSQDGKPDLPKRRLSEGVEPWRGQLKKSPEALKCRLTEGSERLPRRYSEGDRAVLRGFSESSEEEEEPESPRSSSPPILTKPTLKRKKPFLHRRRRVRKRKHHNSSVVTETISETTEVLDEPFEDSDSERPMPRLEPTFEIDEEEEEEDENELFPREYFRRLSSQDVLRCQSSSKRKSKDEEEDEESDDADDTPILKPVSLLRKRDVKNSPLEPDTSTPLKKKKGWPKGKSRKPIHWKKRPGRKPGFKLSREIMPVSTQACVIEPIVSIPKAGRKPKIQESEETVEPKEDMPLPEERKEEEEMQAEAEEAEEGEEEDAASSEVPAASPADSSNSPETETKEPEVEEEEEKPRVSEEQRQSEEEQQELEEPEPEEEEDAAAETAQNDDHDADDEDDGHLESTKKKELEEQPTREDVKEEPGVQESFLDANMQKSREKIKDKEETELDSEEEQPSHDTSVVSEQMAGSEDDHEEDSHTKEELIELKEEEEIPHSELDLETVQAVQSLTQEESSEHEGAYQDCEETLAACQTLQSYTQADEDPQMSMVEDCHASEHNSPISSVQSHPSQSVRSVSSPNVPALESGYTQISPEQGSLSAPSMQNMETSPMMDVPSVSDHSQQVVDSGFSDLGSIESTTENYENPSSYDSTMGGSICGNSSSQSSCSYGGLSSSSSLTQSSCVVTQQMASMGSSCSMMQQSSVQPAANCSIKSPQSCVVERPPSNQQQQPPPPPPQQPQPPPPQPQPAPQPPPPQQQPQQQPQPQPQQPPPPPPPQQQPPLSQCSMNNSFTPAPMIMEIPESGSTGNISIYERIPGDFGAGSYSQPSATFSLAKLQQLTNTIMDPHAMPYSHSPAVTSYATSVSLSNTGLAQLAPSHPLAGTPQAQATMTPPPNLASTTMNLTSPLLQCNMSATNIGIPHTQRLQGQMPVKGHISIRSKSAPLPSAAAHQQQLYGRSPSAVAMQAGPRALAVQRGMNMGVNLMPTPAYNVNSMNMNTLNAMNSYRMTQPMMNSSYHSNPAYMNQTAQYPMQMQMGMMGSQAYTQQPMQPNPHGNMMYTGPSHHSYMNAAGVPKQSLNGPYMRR

Molecule COc1cc2c(NS(=O)(=O)c3c(OC)cc(C4CCN(C5COC5)CC4)cc3OC)noc2cc1Nc1cc(C2CC2)n[nH]1 [Example 164, N-{6-[(3-cyclopropyl-1H-pyrazol-5-yl)amino]-5-methoxy-1,2-benzoxazol-3-yl}-2,6-dimethoxy-4-[1-(oxetan-3-yl)piperidin-4-yl]benzene-1-sulfonamide] has a Ki [1] of 4.1 nM and a Ki (KAT6A Full length enzyme) of 0.8 nM.

— patent US20250122183A1 (Pfizer Inc., priority 2023, published 2025)
